We go through 2 compounds from patent publication US11591336B2 (Relay Therapeutics, Inc., priority 2017, dated 2023).

Amino acid sequences for entries named in this document (tags omitted).
UniProt Q06124, whole entry: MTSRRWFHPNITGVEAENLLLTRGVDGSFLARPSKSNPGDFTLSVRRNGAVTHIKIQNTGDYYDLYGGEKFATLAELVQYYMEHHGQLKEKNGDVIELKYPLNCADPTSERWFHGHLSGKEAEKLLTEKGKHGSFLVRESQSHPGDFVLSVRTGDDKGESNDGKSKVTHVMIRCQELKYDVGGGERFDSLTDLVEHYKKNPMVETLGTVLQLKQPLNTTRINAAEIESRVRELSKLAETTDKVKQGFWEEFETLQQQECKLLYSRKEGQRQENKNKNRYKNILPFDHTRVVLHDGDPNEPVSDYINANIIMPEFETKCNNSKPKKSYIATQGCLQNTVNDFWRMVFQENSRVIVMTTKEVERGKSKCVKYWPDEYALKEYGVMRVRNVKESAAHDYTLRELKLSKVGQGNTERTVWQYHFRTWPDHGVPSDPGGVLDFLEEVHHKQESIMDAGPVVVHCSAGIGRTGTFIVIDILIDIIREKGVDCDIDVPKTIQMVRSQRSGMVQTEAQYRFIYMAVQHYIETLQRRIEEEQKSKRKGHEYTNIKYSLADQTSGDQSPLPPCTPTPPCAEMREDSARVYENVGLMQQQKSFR

Read-outs that look alike come from different tables or passages of the source. Where only a bound is given, the exact number is not on record here.

The target in this assay is SHP2 (Homo sapiens (Human), UniProt Q06124). In words: SHP2 Allosteric Inhibition Assay (DiFMUP prompt fluorescence). Format: biochemical. The following applies: read-out: SHP2 IC50, 0.25 nM SHP2 activated with 0.5 μM peptide IRS1_pY1172(dPEG8)pY1222, substrate DiFMUP 100 μM, 25° C.

Regarding `C[C@@H]1OCC2(CCN(c3cnc4c(N5CCN(C6CCOCC6)c6ncccc65)n[nH]c4n3)CC2)[C@@H]1N`, the IC50 was under 1000 nM. On to `C[C@@H]1OCC2(CCN(c3cnc4c(N5CCCc6nc(-c7nccs7)ccc65)n[nH]c4n3)CC2)[C@@H]1N`, for which the IC50 (tested form: HCl) is under 1000 nM.

Usually IC50 stands for the midpoint of a concentration-inhibition curve.
